Assays:
[1] = target: T1, GABARAP L55V (Homo sapiens, UniProt O95166, L55V); assay: BLI, LIR peptide binding to GABARAP L55V; conditions: best-fit value of BLI response, n=4
T1 construct: GST (followed by 3C protease site) (N); made in house
Description: (§1) For recombinant protein expression in bacteria, a modified plasmid of pGEX-6P2 (GE Healthcare) (referred to as pAL) containing an N-terminal […] followed by a 3C protease cleavage site was used.
(§2) The biosensor tip surface immobilized with a ligand is incubated with an analyte in solution, resulting in an increase in optical thickness at the biosensor tip and a wavelength shift, which is a direct measure of the change in thickness. […] Ligand-loaded SA biosensors were then incubated with different concentrations of ATG8. All binding experiments were performed in solid-black 96-well plates containing 200 μl of solution (25 mM Tris, pH 7.5, 150 mM NaCl, 0.5 mM TCEP, 0.1% Tween-20, 1 mg/ml bovine serum albumin (BSA)) in each well at 25 °C with an agitation speed of 1000 rpm. Each measurement was repeated two to five times.
(§3) Peptides were synthesized using FMOC (fluorenylmethoxycarbonyl) solid-phase peptide chemistry by the Francis Crick Peptide Chemistry Technology Platform and are listed in Supplementary Table 2.

Sequences of proteins named here, by UniProt entry; tags and fusion partners are left off. A change or cut given only in a name is not applied to a line headed by its entry.
UniProt P60520, whole entry: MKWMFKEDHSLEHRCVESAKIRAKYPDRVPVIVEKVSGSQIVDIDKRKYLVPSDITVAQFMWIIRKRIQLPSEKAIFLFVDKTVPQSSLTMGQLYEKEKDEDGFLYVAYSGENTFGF
UniProt Q9BXW4: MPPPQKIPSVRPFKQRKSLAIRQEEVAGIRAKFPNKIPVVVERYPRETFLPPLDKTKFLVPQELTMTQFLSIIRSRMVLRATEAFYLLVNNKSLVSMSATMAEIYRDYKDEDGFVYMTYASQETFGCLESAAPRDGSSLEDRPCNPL
UniProt Q9H0R8, whole entry: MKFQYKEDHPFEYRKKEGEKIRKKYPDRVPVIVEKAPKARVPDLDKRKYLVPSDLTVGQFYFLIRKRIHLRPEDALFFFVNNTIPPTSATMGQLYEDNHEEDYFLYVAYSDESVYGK

[2] = target: T2, LC3B E62Q (Homo sapiens, UniProt Q9GZQ8, E62Q); assay: BLI, LIR peptide binding to LC3B E62Q; conditions: best-fit value of BLI response; FIP200 WT LIR peptide; n=2
T2 construct: GST (followed by 3C protease site) (N); made in house
Description: as §1, §2, §3

[3] = target: T3, LC3A (Homo sapiens, UniProt Q9H492); assay: Bio-layer interferometry (BLI), LIR peptide binding to LC3A; conditions: for Rmax (best-fit value, theoretical response maxium): non linear regression
T3 construct: GST (followed by 3C protease site) (N); made in house; host or cells: bacteria (E. coli BL21 (DE3) pLysS is stated for the GST-ATG8 proteins of the overlay assay)
Description: as §1
(§4) Expression was induced by the addition of 0.5 mM IPTG at OD600 = 0.6 and cells were incubated at 25 °C overnight or at 37 °C for 5 h. Harvested cells were lysed in 50 mM Tris-HCl, pH 8.0, 500 mM NaCl, 0.1% Triton X-100, 0.4 mM 4-(2-aminoethyl)-benzenesulfonylfluoride HCl (AEBSF), and 15 µg/ml benzamidine. Fusion protein was batch adsorbed onto Glutathione-Sepharose 4B beads (GE Healthcare). After five washes with wash buffer (50 mM Tris, pH 8.0, 250 mM NaCl, 0.4 mM AEBSF, and 15 µg/ml benzamidine), fusion proteins were eluted in 50 mM Tris, pH 8.0, 2 mM L-glutathione reduced, 0.4 mM AEBSF, and 15 µg/ml benzamidine.
as §2, §3

[4] = target: T4, GABARAPL2 (Homo sapiens, UniProt P60520); assay: BLI, LIR peptide binding to GABARAPL2
T4 construct: GST (followed by 3C protease site) (N); made in house; host or cells: bacteria (E. coli BL21 (DE3) pLysS is stated for the GST-ATG8 proteins of the overlay assay)
Description: as §1, §4, §2, §3

[5] = target: T5, LC3B Q26K/H27Y/K30R (Homo sapiens, UniProt Q9GZQ8, H27Y/K30R/Q26K); assay: BLI, LIR peptide binding to LC3B Q26K/H27Y/K30R; conditions: best-fit value of BLI response
T5 construct: GST (followed by 3C protease site) (N); made in house
Description: as §1, §2, §3

[6] = target: T6, GABARAP R28K (Homo sapiens, UniProt O95166, R28K); assay: BLI, LIR peptide binding to GABARAP R28K; conditions: best-fit value of BLI response
T6 construct: GST (followed by 3C protease site) (N); made in house
Description: as §1, §2, §3

[7] = target: T7, LC3B Q26K (Homo sapiens, UniProt Q9GZQ8, Q26K); assay: BLI, LIR peptide binding to LC3B Q26K; conditions: best-fit value of BLI response
T7 construct: GST (followed by 3C protease site) (N); made in house
Description: as §1, §2, §3

[8] = target: T8, LC3B Q26K/H27Y/E62Q (Homo sapiens, UniProt Q9GZQ8, E62Q/H27Y/Q26K); assay: BLI, LIR peptide binding to LC3B Q26K/H27Y/E62Q; conditions: best-fit value of BLI response, n=2
T8 construct: GST (followed by 3C protease site) (N); made in house
Description: as §1, §2, §3

[9] = target: T9, GABARAP K24Q/Y25H/Q59E/F60L (Homo sapiens, UniProt O95166, F60L/K24Q/Q59E/Y25H); assay: BLI, LIR peptide binding to GABARAP K24Q/Y25H/Q59E/F60L; conditions: best-fit value of BLI response, n=2
T9 construct: GST (followed by 3C protease site) (N); made in house
Description: as §1, §2, §3

[10] = target: T10, GABARAP L63I (Homo sapiens, UniProt O95166, L63I); assay: BLI, LIR peptide binding to GABARAP L63I; conditions: best-fit value of BLI response, n=4
T10 construct: GST (followed by 3C protease site) (N); made in house
Description: as §1, §2, §3

[11] = target: T11, GABARAP K24Q (Homo sapiens, UniProt O95166, K24Q); assay: BLI, LIR peptide binding to GABARAP K24Q; conditions: best-fit value of BLI response, n=4
T11 construct: GST (followed by 3C protease site) (N); made in house
Description: as §1, §2, §3

[12] = target: T12, GABARAP Y25H (Homo sapiens, UniProt O95166, Y25H); assay: BLI, LIR peptide binding to GABARAP Y25H; conditions: best-fit value of BLI response, n=4
T12 construct: GST (followed by 3C protease site) (N); made in house
Description: as §1, §2, §3

[13] = target: T13, LC3B (Homo sapiens, UniProt Q9GZQ8); assay: BLI, LIR peptide binding to LC3B; conditions: n=2 independent experiments
T13 construct: GST (followed by 3C protease site) (N); made in house; host or cells: bacteria (E. coli BL21 (DE3) pLysS is stated for the GST-ATG8 proteins of the overlay assay)
Description: as §1, §4, §2, §3

[14] = target: T14, LC3B K30R (Homo sapiens, UniProt Q9GZQ8, K30R); assay: BLI, LIR peptide binding to LC3B K30R; conditions: best-fit value of BLI response
T14 construct: GST (followed by 3C protease site) (N); made in house
Description: as §1, §2, §3

[15] = target: T15, LC3B H27Y (Homo sapiens, UniProt Q9GZQ8, H27Y); assay: BLI, LIR peptide binding to LC3B H27Y; conditions: best-fit value of BLI response
T15 construct: GST (followed by 3C protease site) (N); made in house
Description: as §1, §2, §3

[16] = target: T16, GABARAP F62K (Homo sapiens, UniProt O95166, F62K); assay: BLI, LIR peptide binding to GABARAP F62K; conditions: best-fit value of BLI response, n=4
T16 construct: GST (followed by 3C protease site) (N); made in house
Description: as §1, §2, §3

[17] = target: T17, LC3C (Homo sapiens, UniProt Q9BXW4); assay: BLI, LIR peptide binding to LC3C; conditions: for Rmax (best-fit value, theoretical response maxium): non linear regression
T17 construct: GST (followed by 3C protease site) (N); made in house; host or cells: bacteria (E. coli BL21 (DE3) pLysS is stated for the GST-ATG8 proteins of the overlay assay)
Description: as §1, §4, §2, §3

[18] = target: T18, GABARAP K24Q/Y25H/R28K (Homo sapiens, UniProt O95166, K24Q/R28K/Y25H); assay: BLI, LIR peptide binding to GABARAP K24Q/Y25H/R28K; conditions: best-fit value of BLI response, n=4
T18 construct: GST (followed by 3C protease site) (N); made in house
Description: as §1, §2, §3

[19] = target: T19, GABARAP Q59E (Homo sapiens, UniProt O95166, Q59E); assay: BLI, LIR peptide binding to GABARAP Q59E; conditions: best-fit value of BLI response; PCM1 WT LIR peptide; n=4
T19 construct: GST (followed by 3C protease site) (N); made in house
Description: as §1, §2, §3

[20] = target: T20, GABARAPL1 (Homo sapiens, UniProt Q9H0R8); assay: BLI, LIR peptide binding to GABARAPL1; conditions: non linear regression, n=2 independent experiments
T20 construct: GST (followed by 3C protease site) (N); made in house; host or cells: bacteria (E. coli BL21 (DE3) pLysS is stated for the GST-ATG8 proteins of the overlay assay)
Description: as §1, §4, §2, §3

[21] = target: T21, GABARAP (Homo sapiens, UniProt O95166); assay: BLI, LIR peptide binding to GABARAP; conditions: non linear regression, n=4 independent experiments
T21 construct: GST (followed by 3C protease site) (N); made in house; host or cells: bacteria (E. coli BL21 (DE3) pLysS is stated for the GST-ATG8 proteins of the overlay assay)
Description: as §1, §4, §2, §3

## CC[C@H](C)[C@H](NC(=O)[C@@H](NC(=O)[C@H](CCC(N)=O)NC(=O)[C@H](CCC(=O)O)NC(=O)[C@@H](NC(=O)[C@H](CC(N)=O)NC(=O)[C@@H]1CCCN1C(=O)[C@H](Cc1c[nH]cn1)NC(=O)[C@@H]1CCCN1C(=O)[C@@H](NC(=O)[C@@H](NC(=O)[C@H](CCC(=O)O)NC(=O)[C@H](Cc1ccccc1)NC(=O)[C@H](CC(=O)O)NC(=O)[C@H](Cc1ccccc1)NC(=O)[C@@H](NC(=O)[C@H](Cc1c[nH]cn1)NC(=O)[C@H](C)NC(=O)[C@H](CC(=O)O)NC(=O)[C@@H](NC(=O)[C@@H](N)CO)[C@@H](C)CC)[C@@H](C)O)[C@@H](C)O)[C@@H](C)CC)[C@@H](C)CC)[C@@H](C)O)C(=O)O [FIP200 WT]
[1]; FIP200 WT LIR peptide
  Rmax: 1.639
[2]
  Rmax: 1.976
[3]; non linear regression Y=Rmax*X/(Kd+X), LC3A, n=2 independent experiments
  Rmax (best-fit value, theoretical response maximum): 2.436
[3]; n=2 independent experiments
  Rmax (best-fit value, theoretical response maxium): 2.436
[4]; non linear regression Y=Rmax*X/(Kd+X), GABARAPL2, n=2 independent experiments
  Rmax (best-fit value, theoretical response maximum): 1.304
[4]; non linear regression, n=2 independent experiments
  Rmax (best-fit value, theoretical response maxium): 1.304
[5]; FIP200 WT LIR peptide, n=2
  Rmax: 2.304
[6]; FIP200 WT LIR peptide, n=4
  Rmax: 1.69
[7]; FIP200 WT LIR peptide, n=2
  Rmax: 2.107
[8]; FIP200 WT LIR peptide
  Rmax: 2.379
[9]; FIP200 WT LIR peptide
  Rmax: 1.278
[10]; FIP200 WT LIR peptide
  Rmax: 2.187
[11]; FIP200 WT LIR peptide
  Rmax: 1.602
[12]; FIP200 WT LIR peptide
  Rmax: 1.522
[13]; non linear regression Y=Rmax*X/(Kd+X), LC3B
  Rmax (best-fit value, theoretical response maximum): 1.272
[13]; non linear regression
  Rmax (best-fit value, theoretical response maxium): 1.272
[14]; FIP200 WT LIR peptide, n=2
  Rmax: 1.644
[15]; FIP200 WT LIR peptide, n=2
  Rmax: 1.594
[16]; FIP200 WT LIR peptide
  Rmax: 1.981
[17]; non linear regression Y=Rmax*X/(Kd+X), LC3C, n=2 independent experiments
  Rmax (best-fit value, theoretical response maximum): 1.718
[17]; n=2 independent experiments
  Rmax (best-fit value, theoretical response maxium): 1.718
[18]; FIP200 WT LIR peptide
  Rmax: 1.731

## CC[C@H](C)[C@H](NC(=O)[C@@H](NC(=O)[C@H](CC(C)C)NC(=O)[C@H](CCCCN)NC(=O)[C@H](CC(C)C)NC(=O)[C@@H]1CCCN1C(=O)[C@H](CC(C)C)NC(=O)[C@H](CC(=O)O)NC(=O)[C@H](CCC(=O)O)NC(=O)[C@@H](NC(=O)[C@H](CCCCN)NC(=O)[C@@H](NC(=O)[C@H](Cc1ccccc1)NC(=O)[C@H](CC(=O)O)NC(=O)[C@H](CCC(=O)O)NC(=O)[C@H](CCC(=O)O)NC(=O)[C@H](CC(=O)O)NC(=O)[C@H](CO)NC(=O)[C@H](CCCCN)NC(=O)[C@H](CCC(N)=O)NC(=O)[C@@H](N)CO)C(C)C)C(C)C)[C@@H](C)O)C(=O)O [PCM1 WT]
[1]; PCM1 WT LIR peptide
  Rmax: 2.828
[19]
  Rmax: 2.292
[3]; n=4 independent experiments
  Rmax (best-fit value, theoretical response maxium): 3.1
[5]; PCM1 WT LIR peptide, n=4
  Rmax: 2.239
[6]; PCM1 WT LIR peptide, n=5
  Rmax: 2.903
[7]; PCM1 WT LIR peptide, n=5
  Rmax: 2.657
[20]
  Rmax (best-fit value, theoretical response maxium): 2.385
[8]; PCM1 WT LIR peptide
  Rmax: 1.991
[9]; PCM1 WT LIR peptide
  Rmax: 2.029
[10]; PCM1 WT LIR peptide
  Rmax: 3.273
[21]
  Rmax (best-fit value, theoretical response maxium): 1.866
[11]; PCM1 WT LIR peptide
  Rmax: 2.455
[12]; PCM1 WT LIR peptide
  Rmax: 2.405
[14]; PCM1 WT LIR peptide, n=4
  Rmax: 2.554
[15]; PCM1 WT LIR peptide, n=5
  Rmax: 2.232
[16]; PCM1 WT LIR peptide
  Rmax: 3.015
[17]; n=4 independent experiments
  Rmax (best-fit value, theoretical response maxium): 1.702
[18]; PCM1 WT LIR peptide
  Rmax: 2.743

— paper PMC6499816, “Molecular determinants regulating selective binding of autophagy adapters and receptors to ATG8 proteins” (Nature Communications, 2019)
